Patent publication US6946076B2, “Removal of phosphate from water” (Dudley Mills Pty Ltd., priority 2001, dated 2005)

SMILES: O=C([O-])CO.O=C([O-])CO.O=C([O-])CO.[La+3] [lanthanum glycolate]
- lanthanum of the second dose remaining unreacted: about 40%
